The numbers were not newly measured in US11981711B2, “Methods of treating spinal cord injury using a chondroitin sulfate proteoglycan (CSPG) reduction peptide (CRP) comprising a cell membrane penetrating domain, a CSPG binding domain, and a lysosome targeting domain” (The Cleveland Clinic Foundation, priority 2017, dated 2024), which cites them from elsewhere.

For the data set the following is noted: background statement; cited from earlier work.

On to chondroitinase ABC, for which the thermal stability entry is listed as “low thermal stability”.
